Results taken from patent US12507703B2, “Methods, devices and compositions for preserving human milk” (The Trustees of Princeton University, priority 2023, dated 2025).
Counter-ions that a name gives are not always drawn.

Tested on: lipase
Assay: Lipase/lipolysis assay (EnzChek Lipase Substrate, quenched BODIPY-fatty acid conjugate) on stored human milk; further: test concentration or dose not given here
Conditions: stored 1 week at −20° C.
[1] = Food-Sourced Compound Library compound added to fresh human milk, thawed at room temperature, RFU <400 considered a hit
[2] = compound added to fresh human milk, thawed at room temperature, RFU <400 considered a hit
[3] = Food Additive Library compound added to fresh human milk, thawed at room temperature, RFU of <400 considered a hit
[4] = Biolog PM4 compound added to fresh human milk, RFU <400 = hit
[5] = Biolog PM2a compound added to fresh human milk, RFU <400 = hit
[6] = Biolog PM1 compound added to fresh human milk, RFU <400 = hit
[7] = Biolog PM5 compound added to fresh human milk, RFU <400 = hit

Cl.NCC(N)C(=O)O (centres unmarked) [2,3-Diaminopropionic acid hydrochloride]
Lipase (RFU) [1]: 1119.42 RFU

NC(=O)CC[C@@H](N)C(=O)O [D-Glutamine]
Lipase (RFU) [2]: 1027.219 RFU

C=C[C@H]1C[N@@]2CC[C@H]1C[C@@H]2[C@@H](O)c1ccnc2ccc(OC)cc12 [Quinidine]
Lipase (RFU) [3]: 1032.063 RFU

Cc1cn([C@H]2C[C@H](O)[C@@H](COP(=O)(O)O)O2)c(=O)[nH]c1=O [Thymidine-5′-monophosphate]
Lipase (RFU) [4]: 974.1167 RFU

COc1cc(/C=C/C(=O)O)ccc1O [Ferulic acid]
Lipase (RFU) [3]: 828.4832 RFU
Lipase (RFU) [1]: 805.3139 RFU

N[C@@H](CS(=O)(=O)O)C(=O)O [L-Cysteic Acid]
Lipase (RFU) [4]: 958.3734 RFU

COc1c(OC)c2occc2c2oc(=O)ccc12 [Pimpinellin]
Lipase (RFU) [1]: 815.023 RFU

CC(=O)c1cnccn1 [Acetylpyrazine]
Lipase (RFU) [3]: 840.2329 RFU

C=CCCC(=O)O [4-Pentenoic acid]
Lipase (RFU) [3]: 813.3186 RFU

OC[C@H]1O[C@@H](Oc2cc3c(O)cc(O)cc3[o+]c2-c2ccc(O)c(O)c2)[C@H](O)[C@@H](O)[C@H]1O.[Cl-] [Cyanidin-3-O-galactoside (chloride)]
Lipase (RFU) [1]: 953.1035 RFU

CCCCCCCCCCCCCCCC(=O)NCCO [Palmitoylethanolamide]
Lipase (RFU) [2]: 929.4609 RFU

CCC(O)CC [Compound 3-Pentanol, 3-Pentanol]
Lipase (RFU) [2]: 647.4207 RFU

CCCCCCCCCC(=O)O [Capric Acid]
Lipase (RFU) [5]: 943.0875 RFU

Cc1ncsc1CCO [4-Methyl-5-thiazoleethanol]
Lipase (RFU) [3]: 986.4381 RFU

CCCCCCCCCC(=O)O [Decanoic acid]
Lipase (RFU) [3]: 948.693 RFU

CCc1cnccn1 [Compound 2-Ethylpyrazine, 2-Ethylpyrazine]
Lipase (RFU) [3]: 787.4299 RFU

O=c1ccc2ccccc2o1 [Coumarin]
Lipase (RFU) [3]: 880.5184 RFU

c1coc(CNc2ncnc3[nH]cnc23)c1 [Kinetin]
Lipase (RFU) [1]: 1069.815 RFU

COc1c2occc2cc2ccc(=O)oc12 [Methoxsalen]
Lipase (RFU) [2]: 1482.513 RFU

CC(C)c1cc2c(c(O)c1O)[C@@]13CCCC(C)(C)[C@@H]1C[C@@H]2OC3=O [Carnosol]
Lipase (RFU) [1]: 1134.624 RFU

CC1(C)CC[C@]2(CO)CC[C@]3(C)C(=CC[C@@H]4[C@@]5(C)CC[C@H](O)C(C)(C)[C@@H]5CC[C@]43C)[C@@H]2C1 [Erythrodiol]
Lipase (RFU) [2]: 872.6485 RFU

O=C(O)[C@@H]1CCCCN1 [L-Pipecolic acid]
Lipase (RFU) [2]: 928.0856 RFU

O=C(O)c1cc(C(=O)O)c2c(n1)C(=O)C(=O)c1cc(C(=O)O)[nH]c1-2 [Pyrroloquinoline quinone (disodium salt)]
Lipase (RFU) [2]: 861.8531 RFU

C=C[C@H]1C[N@@]2CC[C@H]1C[C@H]2[C@H](O)c1ccnc2ccc(OC)cc12 [Quinine]
Lipase (RFU) [3]: 1166.375 RFU

CC(O)(CC(=O)O)C(=O)O (centres unmarked) [Citramalic Acid]
Lipase (RFU) [5]: 1053.518 RFU

CC(=O)OCCC(C)CCC=C(C)C (centres unmarked) [Citronellyl acetate]
Lipase (RFU) [3]: 1072.293 RFU

N[C@H](CO)C(=O)O [D-Serine]
Lipase (RFU) [6]: 1090.454 RFU
Lipase (RFU) [1]: 996.7927 RFU

CN(C)CC(=O)O [N-Methylsarcosine]
Lipase (RFU) [1]: 998.6616 RFU

CC(/C=C/C=C(\C)C(=O)O)=C\C=C\C=C(C)\C=C\C=C(/C)C(=O)O [Transcrocetinate disodium]
Lipase (RFU) [2]: 971.7624 RFU

CCCCCCCCCCCCOC(=O)c1cc(O)c(O)c(O)c1 [Dodecyl gallate]
Lipase (RFU) [3]: 869.3552 RFU

CCCCCCCCCCCCCCCO [Compound 1-Pentadecanol, 1-Pentadecanol]
Lipase (RFU) [2]: 991.3473 RFU

N[C@@H](CC(=O)O)C(=O)O [L-Aspartic Acid]
Lipase (RFU) [6]: 875.054 RFU
Lipase (RFU) [7]: 1061.921 RFU
Lipase (RFU) [3]: 484.6137 RFU
Lipase (RFU) (Food-Sourced Compound Library compound added to fresh human milk, thawed at room temperature, RFU <400 considered a hit, listed as L-Aspartic acid): 1047.068 RFU

COc1ccc2c(c1OC)O[C@H]1c3ccc(O)cc3OC[C@@H]21 [Methylnissolin]
Lipase (RFU) [2]: 940.1869 RFU

O=C(O)c1cc(=O)[nH]c(=O)[nH]1 [Orotic Acid]
Lipase (RFU) [7]: 1057.435 RFU
Lipase (RFU) [2]: 826.427 RFU

CCC(=O)C(C)=O [2,3-Pentanedione]
Lipase (RFU) [3]: 655.8408 RFU
Lipase (RFU) [2]: 909.3841 RFU

CC=Cc1ccc(O)c(OC)c1 [Isoeugenol]
Lipase (RFU) [3]: 1084.439 RFU
Lipase (RFU) [2]: 1139.306 RFU

O=C(O)CCCCCCCCC(=O)O [Decanedioic acid]
Lipase (RFU) [2]: 1153.062 RFU

CC(C)=CCC/C(C)=C/CC/C(C)=C/CO [Farnesol]
Lipase (RFU) [3]: 1017.943 RFU

O=C(O)CCCC(O)C(=O)O (centres unmarked) [2-Hydroxyadipic acid]
Lipase (RFU) [2]: 1079.818 RFU

COc1ccc(OC)cc1 [1,4-Dimethoxybenzene]
Lipase (RFU) [3]: 995.997 RFU
Lipase (RFU) [2]: 1097.393 RFU

Nc1ncnc2c1ncn2[C@@H]1O[C@H](COP(=O)(O)O)[C@@H](O)[C@H]1O [Adenosine-5′-monophosphate]
Lipase (RFU) [4]: 943.1275 RFU

C[C@H](O)[C@H](O)[C@@H](O)[C@@H](O)C=O [L-Rhamnose]
Lipase (RFU) [6]: 856.5977 RFU

CC[C@@H](C)[C@H](N)C(=O)O [L-Alloisoleucine]
Lipase (RFU) [1]: 1102.403 RFU

O=C[C@@H](O)[C@@H](O)[C@H](O)[C@H](O)CO [D-Mannose]
Lipase (RFU) [6]: 984.0635 RFU
Lipase (RFU) [2]: 1071.425 RFU

C=C[C@H]1C[N@@]2CC[C@H]1C[C@H]2[C@H](O)c1ccnc2ccc(OC)cc12 [Quinine (hydrochloride dihydrate)]
Lipase (RFU) [3]: 1081.551 RFU

COc1ccc(/C=C/C(=O)c2c(O)cc(OC)cc2OC)cc1 [Flavokawain A]
Lipase (RFU) [2]: 893.4961 RFU

N=C(N)NCCC[C@H](NP(=O)(O)O)C(=O)O [Phospho-L-Arginine]
Lipase (RFU) [4]: 783.4713 RFU

CC(C)[C@@H](C)/C=C/[C@@H](C)[C@H]1CC[C@H]2C3=CC=C4C[C@@H](O)CC[C@]4(C)[C@H]3CC[C@]12C [Ergosterol]
Lipase (RFU) [2]: 678.6297 RFU

Oc1ccc(C=Cc2cc(O)cc(O)c2)cc1 [Resveratrol]
Lipase (RFU) [2]: 1168.882 RFU

CC(=O)SCCNC(=O)CCNC(=O)[C@H](O)C(C)(C)COP(=O)(O)OP(=O)(O)OC[C@H]1O[C@@H](n2cnc3c(N)ncnc32)[C@H](O)[C@@H]1OP(=O)(O)O.[Na].[Na].[Na] [Acetyl Coenzyme A (trisodium)]
Lipase (RFU) [1]: 1209.897 RFU

N[C@@H](Cc1cc(I)c(Oc2ccc(O)c(I)c2)c(I)c1)C(=O)O [Liothyronine]
Lipase (RFU) [1]: 924.5631 RFU

CC(C)=CCOc1c2ccoc2cc2oc(=O)ccc12 [Isoimperatorin]
Lipase (RFU) [2]: 919.4728 RFU

CNC(=O)c1cccnc1 [N-Methylnicotinamide]
Lipase (RFU) [1]: 996.1346 RFU

CCCCCCCCCCCCCCCC(=O)OC[C@H](CO)OC(=O)CCCCCCCCCCCCCCC [1,2-Dipalmitoyl-sn-glycerol]
Lipase (RFU) [2]: 825.1995 RFU

C=C1C(=O)O[C@@H]2C[C@@]3(C)CCCC(=C)[C@@H]3C[C@H]12 [Isoalantolactone]
Lipase (RFU) [1]: 1089.165 RFU

COc1ccc(/C=C/C(=O)O)cc1OC [(E)-3,4-Dimethoxycinnamic acid]
Lipase (RFU) [2]: 953.2591 RFU

COc1ccc2[nH]cc(CC(=O)O)c2c1 [5-Methoxyindole-3-acetic acid]
Lipase (RFU) [2]: 1104.988 RFU

NCCCC(=O)O [γ-Aminobutyric acid]
Lipase (RFU) [2]: 759.3982 RFU

Pancreatin
Lipase (RFU) [3]: 1048.576 RFU

NCCCNCCCCNCCCN [Spermine]
Lipase (RFU) [7]: 1092.25 RFU
Lipase (RFU) [1]: 968.6677 RFU

COc1cc(C(=O)O)cc(OC)c1O [Syringic acid]
Lipase (RFU) [1]: 793.4388 RFU

O=C(O)C=Cc1ccc(O)cc1 [p-Hydroxycinnamic acid]
Lipase (RFU) [2]: 963.4234 RFU

CCC(C)C(=O)C(=O)O (centres unmarked) [3-Methyl-2-oxovaleric acid]
Lipase (RFU) [3]: 1424.933 RFU
Lipase (RFU) [1]: 984.6358 RFU

N[C@H](Cc1ccc(OP(=O)(O)O)cc1)C(=O)O [O-Phospho-D-Tyrosine]
Lipase (RFU) [4]: 980.7186 RFU

O=C[C@@H](O)[C@@H](O)[C@H](O)[C@H](O)COP(=O)(O)O [D-Mannose-6-Phosphate]
Lipase (RFU) [4]: 906.9952 RFU

O=C(CO)[C@@H](O)[C@@H](O)CO [L-Ribulose]
Lipase (RFU) [1]: 1193.604 RFU

CCCOC(=O)c1ccc(O)cc1 [Propylparaben]
Lipase (RFU) [3]: 846.3629 RFU

NCCCCC(=O)O [5-Aminovaleric acid]
Lipase (RFU) [1]: 867.767 RFU
